In US20130060020A1, “Compounds useful for treating neurodegenerative disorders” (Satori Pharmaceuticals, Inc., priority 2011, published 2013):

How the values were obtained:
Aβ-42 = Aβ-42 MSD 3-plex ELISA, conditioned media of 2B7 cells; assay type: cell-based; settings: Homo sapiens, 5 h
Description: (§1) Assays were conducted to determine the ability of a Compound of Formula I to modulate […], and Aβ-38.
(§2) Plates with capture antibodies were blocked for 1-2 hours at room temperature with 150 μL of the manufactures blocking reagent.
(§3) Cultured 2B7 cells in 96 well plate with 250 μL of media per well until confluent;
(§4) Prepared serial dilutions of compounds in DMSO at 100× the final desired concentration;
(§5) Washed wells with 2B7 cells 1× with 250 μL of media;
(§6) Diluted DMSO stocks 1:100 into media: • Added 250 μL of media containing compounds (1% DMSO) to wells with 2B7 cells for 5 hours at 37° C.
(§7) ELISA Sample Prep: • Diluted conditioned media: 1 part media with 1% DMSO and 1 part blocking buffer; • 150 μL of the 250 μL of conditioned media were used.
(§8) Prepared per manufacturer's protocol (see above). • Seven point standard curve samples were prepared that contained Aβ-42, Aβ-40, and Aβ-38. The highest concentration of Aβ-42 and Aβ-38 was 3,000 pg/mL and the highest concentration of Aβ-40 was 10,000 pg/mL. Subsequent serial dilutions were 1:3 and the final composition of each sample was 1 part blocking buffer and 1 part cell medium containing 1% DMSO.
(§9) Overnight Sample Incubation: • Blocked plates are washed 5× with MSD wash buffer with a plate washer; • […] and blocker G reagent in MSD blocking solution was added; • 25 μL of samples (1 part conditioned media containing 1% DMSO and 1 part MSD blocking buffer) were then added; • Plates were incubated overnight at 4 degrees C. or 2 hours at room temperature.
(§10) Final Wash and Readout: • Washed wells 5× with MSD wash buffer; • Added 150 μL 2×MSD read buffer; • Read with MSD imager.
(§11) Aβ peptide levels for each peptide were calculated from the standard curve using the MSD software provided with the MSD 2400 Imager. Percent vehicle values for each compound dosage were then calculated and fit to a 4 parameter curve generating IC50 values.
(§12) Conditioned media from 2B7 cells (Mayo) was collected after 5 hours of treatment and diluted with 1 volume of Meso Scale Discovery (MSD, Gaithersburg Md.) blocking buffer (1% BSA in MSD wash buffer). For total Aβ measurements, standard-bind, multi-array single spot 96 well MSD ELISA plates were coated with unlabeled 4G8 capture antibody (Covance, Princeton, N.J.) overnight at 4° C. and then blocked with 5% BSA in MSD wash buffer for 1 hour at room temperature with orbital shaking Diluted 2B7 conditioned media were added to the blocked in-house total Aβ MSD plates with SULFO-TAG 6E10 antibody (MSD). For Aβ38, 40 and 42 measurements, diluted 2B7 conditioned media were added to blocked human (6E10) Aβ 3-Plex plates (MSD). Total Aβ and Aβ 3-Plex plates were incubated for 2 hours at room temperature with orbital shaking followed by washing and reading according to the manufacturer's instructions (SECTOR® Imager 2400, MSD). Aβ concentrations were converted to percent vehicle values and used to construct dose response curves which were fitted to […] using GraphPad Prism version 5.00 for Windows, GraphPad Software, San Diego Calif. USA.

Aβ-38 = Aβ-38 MSD 3-plex ELISA, conditioned media of 2B7 cells; assay type: cell-based; settings: Homo sapiens, 5 h
Description: as §1, §2, §3, §4, §5, §6, §7, §8, §9, §10, §11, §12

Notch processing (NICD) = experiment: Notch assay: NICD appearance in SUP-T1 cells (western blot); assay type: cell-based; settings: Homo sapiens, SUP-T1, 18 h, read-out: Notch IC50
Description: The methods for this assay are broken up into two parts. 1) Growing, dosing and lysing cells 2) Measuring Notch processing (NICD appearance) and data manipulation. Cell viability is also described (CTG). SUP-T1 cells were cultured in T75 flasks in RPMI media (Mediatech 10-041-CV) supplemented with 10% FBS and penicillin/streptomycin at 37° C. in a 5% CO2 atmosphere. One hour prior to drug treatment six well plates were seeded with 1.5 mL of media with cells at a density of 1.0×10^6 cells/mL. The DMSO serial dilutions were diluted 100 fold directly into the media with the cells and incubated for 18 hours at 37° C. After treatment 100 μL of treated cells were assayed for viability with the Promega Cell Titer Glo assay system. The remaining cells were washed 2× in PBS and then lysed with 1× promega reporter lysis buffer (E397A) containing a complete protease inhibitor cocktail (Roche 04 693 116 011) for 1 hour at 4° C. Lysates were spun at 5,000 RPM for 5 minutes and supernatants were collected and analyzed for NICD levels. Total protein levels of the cell lysates were measured and adjusted to 0.5 ug/uL using Thermo Scientific's BCA assay (23221/23224) with a BSA standard curve. Lysates were then diluted with one part of gel loading buffer (BioRad 161-0739) with BME (BioRad 161-0739) and separated on 4-20% poly-acrylamide tris/glycine gels (BioRad 345-0065) for 1 hour at 200V. The gels were then equilibrated in transfer buffer (20% Methanol in Tris-glycine buffer, BioRad 161-0734) and transferred to 0.45 micron nitrocellulose (Whatman 10 401196) for 45 minutes at 100V in a tank transfer system. […] The membranes were then washed and probed with a HRP tagged anti rabbit secondary (1:20,000 dilution, Rockland 811-1322) in 5% milk in TBS-T for an hour at room temperature. […] To account for loading discrepancies each NICD band was normalized to the alpha tubulin band in that well. These values were then normalized to vehicle levels and used to plot a dose response curve. IC50 values were obtained from the dose response curves using a four parameter fit method available within Prism's GraphPad graphing suite. Luminescent data from Promega's Cell Titre Glo assay system were normalized to vehicle controls and plotted with NICD levels.

Aβ-40 = Aβ-40 MSD 3-plex ELISA, conditioned media of 2B7 cells; assay type: cell-based; settings: Homo sapiens, 5 h
Description: as §1, §2, §3, §4, §5, §6, §7, §8, §9, §10, §11, §12

Aβ 42 = experiment: % 42 lowering and 40/42 selectivity after dosing in mg/kg (Table 5); assay type: in vivo
[1] = read-out: Aβ 42 DR IC50 Inflection
[2] = read-out: Aβ 40 DR IC50 Inflection
[3] = read-out: Aβ 38 DR IC50 Inflection

Row | SMILES | IC50 (Aβ-42; [1]) | IC50 (Aβ-42; read-out: Aβ 42 IC50) | IC50 (Aβ-38; read-out: Aβ 38 IC50) | IC50 (Notch processing (NICD)) | IC50 (Aβ-40; read-out: Aβ 40 IC50) | IC50 (Aβ-40; [2]) | IC50 (Aβ-38; [3]) | 40/42 selective 10 hr (Aβ 42; 100 mg/kg) | 40/42 selective 10 hr (Aβ 42; 150 mg/kg)
1 | CCO[C@@H]([C@H]1C[C@@H](C)[C@H]2[C@H](O1)[C@H](O)[C@@]1(C)[C@@H]3CC[C@H]4C(C)(C)[C@@H](O[C@H]5CN(C6CN(C7CCC7)C6)CCO5)CC[C@@]45C[C@@]35CC[C@]21C)C(C)(C)O [Compound I-13] | 100 to 500 nM | 100 to 500 nM | 100 to 500 nM | > 5000 nM | 1000 to 5000 nM |  |  |  | 
2 | CCO[C@@H]([C@H]1C[C@@H](C)[C@H]2[C@H](O1)[C@H](O)[C@@]1(C)[C@@H]3CC[C@H]4C(C)(C)[C@@H](O[C@H]5CN(C6CN(CCOC)C6)CCO5)CC[C@@]45C[C@@]35CC[C@]21C)C(C)(C)O [Compound I-17] | < 100 nM | < 100 nM | 100 to 500 nM |  | 1000 to 5000 nM | 1000 to 5000 nM |  |  | 
3 | CCO[C@@H]([C@H]1C[C@@H](C)[C@H]2[C@H](O1)[C@H](O)[C@@]1(C)[C@@H]3CC[C@H]4C(C)(C)[C@@H](O[C@H]5CN(CC6CN(C7COC7)C6)CCO5)CC[C@@]45C[C@@]35CC[C@]21C)C(C)(C)O [Compound I-19] | 100 to 500 nM | 100 to 500 nM | 501 to 1000 nM |  | 1000 to 5000 nM | 1000 to 5000 nM | 100 to 500 nM |  | 
4 | CCO[C@@H]([C@H]1C[C@@H](C)[C@H]2[C@H](O1)[C@H](O)[C@@]1(C)[C@@H]3CC[C@H]4C(C)(C)[C@@H](O[C@H]5CN(CC6CN(CCO)C6)CCO5)CC[C@@]45C[C@@]35CC[C@]21C)C(C)(C)O [Compound I-38] | 100 to 500 nM | 100 to 500 nM | 100 to 500 nM |  | 1000 to 5000 nM |  |  |  | 
5 | CCO[C@@H]([C@H]1C[C@@H](C)[C@H]2[C@H](O1)[C@H](O)[C@@]1(C)[C@@H]3CC[C@H]4C(C)(C)[C@@H](O[C@H]5CN(C6CN(CC(C)(C)O)C6)CCO5)CC[C@@]45C[C@@]35CC[C@]21C)C(C)(C)O [Compound I-25] | < 100 nM | 100 to 500 nM | 501 to 1000 nM |  | 1000 to 5000 nM | 1000 to 5000 nM |  |  | 
6 | CCO[C@@H]([C@H]1C[C@@H](C)[C@H]2[C@H](O1)[C@H](O)[C@@]1(C)[C@@H]3CC[C@H]4C(C)(C)[C@@H](O[C@H]5CN(C6CN(C7COC7)C6)CCO5)CC[C@@]45C[C@@]35CC[C@]21C)C(C)(C)O [Compound I-11] | < 100 nM | 100 to 500 nM | 100 to 500 nM |  |  |  |  |  | 
7 | CCO[C@@H]([C@H]1C[C@@H](C)[C@H]2[C@H](O1)[C@H](O)[C@@]1(C)[C@@H]3CC[C@H]4C(C)(C)[C@@H](O[C@H]5CN(CC6CN(CCOC)C6)CCO5)CC[C@@]45C[C@@]35CC[C@]21C)C(C)(C)O [Compound I-20] | < 100 nM | < 100 nM | 100 to 500 nM |  | 1000 to 5000 nM | 1000 to 5000 nM | < 100 nM | G^a (16-20 fold selectivity) | 
8 | CCO[C@@H]([C@H]1C[C@@H](C)[C@H]2[C@H](O1)[C@H](O)[C@@]1(C)[C@@H]3CC[C@H]4C(C)(C)[C@@H](O[C@H]5CN(CC6CN(C(C)C)C6)CCO5)CC[C@@]45C[C@@]35CC[C@]21C)C(C)(C)O [Compound I-22] | 100 to 500 nM | 100 to 500 nM | 100 to 500 nM |  | 1000 to 5000 nM |  |  |  | 
9 | CCO[C@@H]([C@H]1C[C@@H](C)[C@H]2[C@H](O1)[C@H](O)[C@@]1(C)[C@@H]3CC[C@H]4C(C)(C)[C@@H](O[C@H]5CN(C6CN(CCO)C6)CCO5)CC[C@@]45C[C@@]35CC[C@]21C)C(C)(C)O [Compound I-40] | < 100 nM | < 100 nM | 100 to 500 nM |  | 1000 to 5000 nM |  |  |  | 
10 | [2H]C1(N2CCO[C@@H](O[C@H]3CC[C@]45C[C@]46CC[C@]4(C)[C@@H]7[C@H](O[C@@H]([C@H](OCC)C(C)(C)O)C[C@H]7C)[C@H](O)[C@@]4(C)[C@@H]6CC[C@H]5C3(C)C)C2)CN(C)C1 [Compound I-10] | < 100 nM | 100 to 500 nM | 501 to 1000 nM |  | 1000 to 5000 nM | 1000 to 5000 nM |  |  | 
11 | CCO[C@@H]([C@H]1C[C@@H](C)[C@H]2[C@H](O1)[C@H](O)[C@@]1(C)[C@@H]3CC[C@H]4C(C)(C)[C@@H](O[C@H]5CN(C6CN(C(C)C)C6)CCO5)CC[C@@]45C[C@@]35CC[C@]21C)C(C)(C)O [Compound I-6] | < 100 nM | 100 to 500 nM | 100 to 500 nM | > 5000 nM | 1000 to 5000 nM | 1000 to 5000 nM |  |  | 
12 | CCO[C@@H]([C@H]1C[C@@H](C)[C@H]2[C@H](O1)[C@H](O)[C@@]1(C)[C@@H]3CC[C@H]4C(C)(C)[C@@H](O[C@H]5CN(C6CN(C)C6)CCO5)CC[C@@]45C[C@@]35CC[C@]21C)C(C)(C)O [Compound I-3] | 100 to 500 nM | < 100 nM | 100 to 500 nM | > 5000 nM | 1000 to 5000 nM | 1000 to 5000 nM |  |  | 
13 | CCO[C@@H]([C@H]1C[C@@H](C)[C@H]2[C@H](O1)[C@H](O)[C@@]1(C)[C@@H]3CC[C@H]4C(C)(C)[C@@H](O[C@H]5CN(CC6CN(CC(C)(C)O)C6)CCO5)CC[C@@]45C[C@@]35CC[C@]21C)C(C)(C)O [Compound I-24] | 100 to 500 nM | 100 to 500 nM | 100 to 500 nM | > 5000 nM | 501 to 1000 nM |  |  |  | 
14 | CCO[C@@H]([C@H]1C[C@@H](C)[C@H]2[C@H](O1)[C@H](O)[C@@]1(C)[C@@H]3CC[C@H]4C(C)(C)[C@@H](O[C@H]5CN(CC6CN(C)C6)CCO5)CC[C@@]45C[C@@]35CC[C@]21C)C(C)(C)O [Compound I-5] | 100 to 500 nM | 100 to 500 nM | 501 to 1000 nM | > 5000 nM | 1000 to 5000 nM | 1000 to 5000 nM |  |  | F (10-15 fold selectivity)

Read-outs that look alike come from different tables or passages of the source.
